We go through 2 compounds from US12421222B2 (AUGUSTINE THERAPEUTICS, priority 2021, dated 2025).

For orientation: pIC50 means the negative decadic logarithm of the IC50, by convention in mol/L.

The subject of the test is acetylated tubulin (Lys40) in HeLa cells. Kind of test: Acetylated α-tubulin measurement in vitro (immunocytochemistry). In kind it is cell-based. The settings on record: Homo sapiens, 6 hours incubation, acetylated tubulin (Lys40) by immunocytochemistry, read-out: IC50 (Tubulin deacetylation). As to the method: HeLa cells were cultured in UltraCulture serum-free medium (Lonza) supplemented with 2 mM glutamine (Lonza). Assays were performed at 96-well or 384-well format, differences in assay protocols are detailed in Table 6. Cells per well were plated and incubated overnight at 37° C. overnight in a humidified atmosphere containing 5% CO2. Cell density and seeding volumes are detailed in Table 6. Compounds (dissolved in 100% DMSO) or DMSO (vehicle) were added manually by diluting them in culture medium at 10× final assay concentration and adding 10 μL to cells (96-well protocol). Alternatively, 50 nL compound was added directly to the cell culture using the Echo650 (Labcyte) (384-well protocol). In this assay, the final assay concentration of DMSO is 0.1%-0.4%. Trichostatin A (TSA) was used as a positive control. Cells were incubated with compounds at 37° C. in a humidified atmosphere containing 5% CO2 for 6 hours. Levels of acetylated tubulin (Lys40) were assessed by immunocytochemistry using target-specific antibodies. […] Cytoplasmic (defined by total α-tubulin staining) intensities per well were used for α-tubulin (acetylated and total) quantification. Intensities were measured per cell and then averaged per well. […] EC50 values were calculated using the log(inhibitor) vs. response—Variable slope (four parameters) nonlinear regression in GraphPad Prism software.

pIC50: −log10 of the molar value.

With `COc1cc2c(SCC(=O)c3ccc(CNC(=O)CO)s3)nc(C)nc2cc1F` [Example 75, N-((5-(2-((7-fluoro-6-methoxy-2-methylquinazolin-4-yl)thio)acetyl)thiophen-2-yl)methyl)-2-hydroxyacetamide], the pIC50 is 6.30 to 7.00.

As for `Cc1nc(SCC(=O)c2ccc(CNC(=O)CO)s2)c2cc(N3CC4CCC3CO4)ccc2n1` (centres unmarked) [Example 147, N-((5-(2-((6-(2-oxa-5-azabicyclo[2.2.2]octan-5-yl)-2-methylquinazolin-4-yl)thio)acetyl)thiophen-2-yl)methyl)-2-hydroxyacetamide], the negative logarithm of the IC50 (pIC50) is at least 7.00.
